Laboratory results: ChEMBL document CHEMBL1821699, “1,5-Disubstituted indole derivatives as selective human neuronal nitric oxide synthase inhibitors” (Bioorg Med Chem Lett, 2011)
pIC50: −log10 of the molar value.

Chains of the proteins cited; added tags and fusions are not shown.
UniProt P29475, whole entry: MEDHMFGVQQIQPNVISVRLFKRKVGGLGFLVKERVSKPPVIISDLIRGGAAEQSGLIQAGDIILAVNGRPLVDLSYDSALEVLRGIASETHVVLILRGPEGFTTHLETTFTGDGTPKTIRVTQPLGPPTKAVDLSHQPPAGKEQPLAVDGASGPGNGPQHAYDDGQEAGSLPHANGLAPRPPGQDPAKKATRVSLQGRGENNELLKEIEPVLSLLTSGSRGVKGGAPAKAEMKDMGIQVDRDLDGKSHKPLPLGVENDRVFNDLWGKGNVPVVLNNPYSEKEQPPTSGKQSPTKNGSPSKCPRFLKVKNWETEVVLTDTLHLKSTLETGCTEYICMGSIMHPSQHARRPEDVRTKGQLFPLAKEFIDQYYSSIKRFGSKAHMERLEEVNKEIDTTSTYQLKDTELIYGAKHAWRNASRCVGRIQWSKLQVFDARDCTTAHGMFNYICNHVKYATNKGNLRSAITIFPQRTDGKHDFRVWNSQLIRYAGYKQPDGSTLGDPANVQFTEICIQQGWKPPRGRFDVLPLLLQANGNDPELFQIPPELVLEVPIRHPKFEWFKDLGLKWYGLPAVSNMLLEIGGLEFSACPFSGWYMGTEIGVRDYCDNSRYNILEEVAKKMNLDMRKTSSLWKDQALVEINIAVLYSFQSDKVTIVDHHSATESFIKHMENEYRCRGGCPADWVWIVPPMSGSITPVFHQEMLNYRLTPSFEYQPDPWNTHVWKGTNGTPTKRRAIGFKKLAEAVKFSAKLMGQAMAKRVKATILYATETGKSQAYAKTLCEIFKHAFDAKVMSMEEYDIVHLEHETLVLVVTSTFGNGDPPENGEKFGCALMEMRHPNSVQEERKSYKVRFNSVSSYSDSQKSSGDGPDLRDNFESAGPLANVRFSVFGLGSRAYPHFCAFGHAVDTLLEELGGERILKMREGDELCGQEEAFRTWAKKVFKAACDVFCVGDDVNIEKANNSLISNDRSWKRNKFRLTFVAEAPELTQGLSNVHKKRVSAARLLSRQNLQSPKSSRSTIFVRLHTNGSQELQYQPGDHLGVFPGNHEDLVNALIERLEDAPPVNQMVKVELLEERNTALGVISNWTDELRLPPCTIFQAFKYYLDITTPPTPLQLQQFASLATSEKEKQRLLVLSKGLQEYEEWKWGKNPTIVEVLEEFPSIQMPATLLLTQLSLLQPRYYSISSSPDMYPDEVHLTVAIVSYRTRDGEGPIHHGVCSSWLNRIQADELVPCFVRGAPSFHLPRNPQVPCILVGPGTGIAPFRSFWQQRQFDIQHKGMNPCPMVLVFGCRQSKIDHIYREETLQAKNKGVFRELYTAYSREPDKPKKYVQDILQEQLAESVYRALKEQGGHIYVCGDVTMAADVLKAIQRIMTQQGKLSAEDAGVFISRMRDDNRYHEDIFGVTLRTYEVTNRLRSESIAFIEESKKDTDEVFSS

Target: Nitric oxide synthase 1 (Homo sapiens, UniProt P29475)
Assay: Inhibition of human recombinant nNOS expressed in Sf9 cells assessed as conversion of [3H]-L-arginine to [3H]-L-citrulline by radiometric method

Structure (SMILES)	pIC50
CN1CCC[C@@H]1CCn1ccc2cc(NC(=N)c3cccs3)ccc21	7.22
CN1CCC[C@H]1CCn1ccc2cc(NC(=N)c3cccs3)ccc21	7.70
